Test [1] deals with T1, URAT1 (Homo sapiens, UniProt Q96S37). Nature of the test: uric acid uptake by URAT1 oocytes after preincubation with or pre-injection of organic acids (exchange substrate study). It counts as cell-based. Details: expressed in transfected cells; host or cells: Xenopus laevis oocytes ("platanna") injected with URAT1 cRNA. The method, then:
Therefore, 100 nl of 100 mM non-radiolabeled L-lactic acid was precedently injected in the oocytes, and then the uptake of the radiolabeled uric acid was observed (FIG. 7).

By UniProt entry, the sequences of proteins in these tests, tags left out. Where a name states a change or a piece, a line headed by the entry shows the natural chain unless it says otherwise.
UniProt Q96S37: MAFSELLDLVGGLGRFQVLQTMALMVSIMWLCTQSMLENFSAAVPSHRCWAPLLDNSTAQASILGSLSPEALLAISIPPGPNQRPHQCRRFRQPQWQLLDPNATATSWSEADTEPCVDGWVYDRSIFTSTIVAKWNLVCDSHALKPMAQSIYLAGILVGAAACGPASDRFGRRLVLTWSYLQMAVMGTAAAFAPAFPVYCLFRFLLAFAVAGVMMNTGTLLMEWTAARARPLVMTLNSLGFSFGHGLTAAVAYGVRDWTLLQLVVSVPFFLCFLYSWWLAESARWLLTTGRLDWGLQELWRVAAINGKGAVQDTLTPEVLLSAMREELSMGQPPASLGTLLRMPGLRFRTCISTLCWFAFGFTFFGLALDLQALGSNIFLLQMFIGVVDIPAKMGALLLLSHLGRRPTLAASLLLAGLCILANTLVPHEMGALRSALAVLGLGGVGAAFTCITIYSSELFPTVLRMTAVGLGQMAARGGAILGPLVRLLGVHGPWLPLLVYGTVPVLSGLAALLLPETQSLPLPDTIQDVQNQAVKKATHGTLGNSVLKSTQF

In test [2] the target is T1, URAT1. As to the kind of experiment: inhibition of [14C] uric acid uptake by oocytes injected with URAT1 cRNA. The conditions noted are these: pH 7.4.

Consider ketoglutaric acid, for which, in test [1], the “uptake of radiolabeled uric acid after precedent injection of organic acid into oocytes” value was “no change” and the “uptake of uric acid after preincubation of oocytes with organic acid” value was “not facilitated”. Also, the “inhibition of transport/uptake of [14C] uric acid by URAT1” value in test [2] is on record as “did not inhibit”.

The values are drawn from patent US7510847B2, “Kidney-specific urate transporter and gene thereof” (Human Cell Systems, Inc., priority 2001, dated 2009).
